Earlier results in patent US8299238B2, “Steroidogenesis modified cells and methods for screening for endocrine disrupting chemicals” (University of Saskatchewan, priority 2009, dated 2012).

System: H295R cells
Conditions: H295R cells (parental or unmodified); cited from earlier work

For “Human chorionic gonadotropin [Human chorionic gonadotropin (hcG)]”, which “Effect type: estradiol (E2) production” value is on record?
The value was “No effect on T and E2 production in”.

What about the “Effect type: testosterone (T) production” value of the same substance?
Its value is “No effect on T and E2 production in”.
